Data from patent US9296745B2, “Diacylglycerol acyltransferase 2 inhibitors” (Pfizer Inc., priority 2012, dated 2016).
Where two headings read alike, the source gives them in different places.

By UniProt entry, the sequences of proteins in these tests, tags left out. Where a name states a change or a piece, a line headed by the entry shows the natural chain unless it says otherwise.
UniProt Q96PD7: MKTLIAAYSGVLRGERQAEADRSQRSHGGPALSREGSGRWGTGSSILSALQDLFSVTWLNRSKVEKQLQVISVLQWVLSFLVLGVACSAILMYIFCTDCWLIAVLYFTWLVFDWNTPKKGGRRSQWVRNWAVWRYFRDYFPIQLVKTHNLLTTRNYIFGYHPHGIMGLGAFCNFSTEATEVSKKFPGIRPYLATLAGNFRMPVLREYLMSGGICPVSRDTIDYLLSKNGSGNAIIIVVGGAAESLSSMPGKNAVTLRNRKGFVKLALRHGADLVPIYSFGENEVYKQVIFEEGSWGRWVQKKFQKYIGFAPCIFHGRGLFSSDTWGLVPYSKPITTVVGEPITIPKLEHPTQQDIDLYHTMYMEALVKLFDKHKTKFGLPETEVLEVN

Tests used:
Human DGAT2 (hDGAT2) = Human DGAT2 (hDGAT2) (Homo sapiens (Human), UniProt Q96PD7); experiment: In vitro DGAT2 assay, IC50 determination with hDGAT2 membrane fraction; type: biochemical; conditions: geometric mean
Description: Recombinant baculovirus for the FLAG-tagged hDGAT2 was generated in SF9 insect cells using Bac-to-Bac baculovirus expression system (Invitrogen) according to the manufacturer's protocol. For the expression of hDGAT2, SF9 cells (20 L) grown in Sf900II media were infected with hDGAT2 baculovirus at a multiplicity of infection of 1 in a Wave Bioreactor System 20/50P wave bag (GE Healthcare). After 40 hours of infection, the cells were then harvested by centrifugation at 5,000×g. The cell pellets were washed by resuspending in phosphate buffered saline (PBS) and collected by centrifugation at 5,000×g. The cell paste was flash frozen in liquid N2 and stored at −80° C. until needed. All operations below were at 4° C. unless otherwise noted. The cells were resuspended in lysis buffer (50 mM Tris-HCl, pH 8.0, 250 mM sucrose) including 1 mM ethylenediaminetetraacetic acid (EDTA) and the complete protease inhibitor cocktail (Roche Diagnostics) at a ratio of 3 ml buffer per 1 g cell paste. The cells were lysed by dounce homogenizer. The cell debris was removed by centrifugation at 1,000×g for 20 min, and the supernatant was centrifuged at 100,000×g for 1 hour. The resulting pellet was rinsed three times by filling ultracentrifuge tubes to the top with ice cold PBS before decanting. […]
To 1 μL of compounds dissolved in 100% DMSO and spotted at the bottom of each well, 5 μL of 0.04% bovine serum albumin (BSA) (fatty acid free, Sigma Aldrich) was added and the mixture was incubated at room temperature for 20 minutes. […] Plates were centrifuged at 2,000×g for 1 min in an Allegra 6R Centrifuge (Beckman Coulter) and then were sealed again with fresh covers before reading in a 1450 Microbeta Wallac Trilux Scintillation Counter (Perkin Elmer). DGAT2 activity was measured by quantifying the generated product [^14C]tridecanoylglycerol in the upper organic phase. […]

DGAT2 = DGAT2 (Homo sapiens (Human), UniProt Q96PD7); experiment: IC50 determination for DGAT2 inhibitors in human hepatocytes ([1,3-14C]-glycerol incorporation into lipids); type: cell-based; conditions: average IC50, cryopreserved human hepatocytes, selective DGAT1 inhibitor (3 μM) in all wells, 3 hour incubation with [1,3-14C]-glycerol, read-out: IC50 (nM) in primary human hepatocyte
Description: For evaluation of the effects of DGAT2 inhibitors in a cell-based setting, cryopreserved human hepatocytes (Lot QOC, Celsis, Chicago, Ill.) were thawed and plated onto type I collagen-coated plates according to the manufacturer's instructions. After 24 hours overnight recovery period, the cells were overlayed with media containing 250 μg/ml Matrigel (BD Biosciences, San Jose, Calif.). The following day, media was aspirated and replaced with serum-free Williams Media E (Life Technologies, Grand Island, N.Y.) containing 400 μM sodium dodecanoate (Sigma-Aldrich, St. Louis, Mo.). Forty minutes later, DGAT2 inhibitors (prepared as 100× stocks in 25% DMSO, 75% Williams' Media E) were added to the desired final concentration. […] After a 20 minute preincubation, 0.2 μCi [1,3-^14C]-glycerol (American Radio Chemicals, St. Louis, Mo.) was added to each well and mixed by gentle pipetting prior to a 3 hour incubation. At this point, media was aspirated and the cells were lysed in isopropyl alcohol:tetrahydrofuran (9:1) prior to centrifugation at 3000 rpm for 5 minutes. […] The half maximal inhibitory concentrations (IC50 values) were determined using Graph Pad Prism (GraphPad Software, Inc., La Jolla, Calif.). […]

SMILES	IC50 (Human DGAT2 (hDGAT2); background for complete inhibition of DGAT2 obtained with 50 μM (1R,2R)-2-({3′-Fluoro-4′-[(6-fluoro-1,3-benzothiazol-2-yl)amino]-1,1′-biphenyl-4-yl}carbonyl)cyclopentanecarboxylic acid, read-out: DGAT2 IC50) [nM]	IC50 (DGAT2) [nM]	IC50 (Human DGAT2 (hDGAT2); background for complete inhibition of DGAT2 obtained with 50 μM (1R,2R)-2-({3′-Fluoro-4′-[(6-fluoro-1,3-benzothiazol-2-yl)amino]-1,1′-biphenyl-4-yl}carbonyl)cyclopentanecarboxylic acid, methanesulfonate, read-out: DGAT2 IC50) [nM]	IC50 (Human DGAT2 (hDGAT2); background for complete inhibition of DGAT2 obtained with Example 196-A instead of the cyclopentanecarboxylic acid reference, read-out: DGAT2 IC50 (nM), values in the parentheses) [nM]	IC50 (DGAT2; methanesulfonate) [nM]
O=C([C@@H]1CCCN(c2ccc3nc(C4(n5cc(Cl)cn5)CC4)[nH]c3n2)C1)N1CCCC1 [Example 109-A, (R)-(1-(2-(1-(4-Chloro-1H-pyrazol-1-yl)cyclopropyl)-3H-imidazo[4,5-b]pyridin-5-yl)piperidin-3-yl)(pyrrolidin-1-yl)methanone]	13.8	2.1			
O=C([C@@H]1CCCN(c2ccc3nc(C4(n5cc(Cl)cn5)CC4)[nH]c3n2)C1)N1CCCC1 [Example 109-B, (R)-(1-(2-(1-(4-Chloro-1H-pyrazol-1-yl)cyclopropyl)-3H-imidazo[4,5-b]pyridin-5-yl)piperidin-3-yl)(pyrrolidin-1-yl)methanone methanesulfonate]			20.2	15	5.5
